# Values quoted from earlier work as cited in patent publication US5679673A (priority 1994, dated 1997).
# System: kappa opioid receptors
# Conditions: cited from earlier work
structure (smiles),measurement,value
CN(C(=O)Cc1ccc(Cl)c(Cl)c1)[C@@H]1CCCC[C@H]1N1CCCC1 (relative stereo),kappa opioid receptor ligand,highly selective ligands for kappa opioid receptors
